Molecular target: T1, Human Leukocyte Elastase (Homo sapiens, UniProt P08246)
T1 sequence (P08246 30-247 limits assumed): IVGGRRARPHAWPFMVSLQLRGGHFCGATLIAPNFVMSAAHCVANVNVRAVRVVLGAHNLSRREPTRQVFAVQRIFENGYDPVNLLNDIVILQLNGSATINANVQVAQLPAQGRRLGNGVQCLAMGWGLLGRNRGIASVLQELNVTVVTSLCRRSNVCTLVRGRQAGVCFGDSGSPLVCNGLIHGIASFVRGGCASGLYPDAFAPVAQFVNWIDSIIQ

B1: SELP815K: silk-elastin-like protein polymer, longer silk units, fifteen elastin units, lysine elastin unit; monomer repeated 6 times (SEQ ID NO. 21) (protein)
chain: MDPVVLQRRDWENPGVTQLNRLAAHPPFASDPMGAGSGAGAGSGAGAGSGVGVPGVGVPGVGVPGVGVPGKGVPGVGVPGVGVPGVGVPGVGVPGVGVPGVGVPGVGVPGVGVPGVGVPGVGVPGVGVPGAGAGSGAGAGSGAGAGSGAGAGSGAGAGSGAGAGAGSGAGAGSGAGAGSGVGVPGVGVPGVGVPGVGVPGKGVPGVGVPGVGVPGVGVPGVGVPGVGVPGVGVPGVGVPGVGVPGVGVPGVGVPGVGVPGAGAGSGAGAGSGAGAGSGAGAGSGAGAGSGAGAGAGSGAGAGSGAGAGSGVGVPGVGVPGVGVPGVGVPGKGVPGVGVPGVGVPGVGVPGVGVPGVGVPGVGVPGVGVPGVGVPGVGVPGVGVPGVGVPGAGAGSGAGAGSGAGAGSGAGAGSGAGAGSGAGAGAGSGAGAGSGAGAGSGVGVPGVGVPGVGVPGVGVPGKGVPGVGVPGVGVPGVGVPGVGVPGVGVPGVGVPGVGVPGVGVPGVGVPGVGVPGVGVPGAGAGSGAGAGSGAGAGSGAGAGSGAGAGSGAGAGAGSGAGAGSGAGAGSGVGVPGVGVPGVGVPGVGVPGKGVPGVGVPGVGVPGVGVPGVGVPGVGVPGVGVPGVGVPGVGVPGVGVPGVGVPGVGVPGAGAGSGAGAGSGAGAGSGAGAGSGAGAGSGAGAGAGSGAGAGSGAGAGSGVGVPGVGVPGVGVPGVGVPGKGVPGVGVPGVGVPGVGVPGVGVPGVGVPGVGVPGVGVPGVGVPGVGVPGVGVPGVGVPGAGAGSGAGAGSGAGAGSGAGAGSGAGAGSGAGAMDPGRYQDLRSHHHHHH
modifications: monomer repeated 6 times; Hybrid of Homo sapein and Bombyx mori
sensitivity to elastase degradation (soluble fraction release): lowest sensitivity to degradation | resistance to elastase degradation (8 wt % hydrogel vs SELP47K and SELP415K at 12 wt %): more resistant to degradation

From patent US10253089B2, “Matrix metalloproteinase cleavable protein polymers for cancer gene therapy” (The University of Utah Research Foundation, priority 2012, dated 2019)
